Source: PMC2009656 (British Journal of Cancer, 1978)
Where two headings read alike, the source gives them in different places.

Test system: isolated liver rough endoplasmic reticulum (RER)
Settings: for Degranulation (%): Table IV.3
[1] = incubate 12 ug/ml, 2 h, 25 C, >5% regarded as positive
[2] = incubate 8.5 ug/ml, 2 h, 25 C, >5% regarded as positive

Compound | Degranulation (%) [1] | further results
Oc1ccc2ccccc2c1 | 1-4% | –
EDTA | – | degranulation by specific-activity measurements (RER treated with 5 mM EDTA): 64.4%; Specific activity (d/s/mg) Protein of stripped RER (Table IV.1, RER treated with 5 mM EDTA, untreated RER 2034, SER 381): 969 d/s/mg; Specific activity (d/s/mg) RNA of stripped RER (Table IV.1, RER treated with 5 mM EDTA, untreated RER 13,390, SER 19,106): 13,269 d/s/mg
Nc1ccc(-c2ccc(N)cc2)cc1 | 21.7% | –
O=C(O)c1ccccc1 | 3 -5% | –
Cc1c[n+]([O-])c2ccccc2c1[N+](=O)[O-] | 1 -6% | –
2,4,5-Trichlorophenoxyacetate | 0.1% | –
Nc1cccc2ccccc12 | – | Degranulation (%) [2]: 9.9%
CN(C)C(=O)Cl | 3 -5% | –
O=[N+]([O-])c1ccc(O)c([N+](=O)[O-])c1 | 6-8% | –
1,1'-Ethylene-2,2'-bipyridinium dibromide | 1- 7% | –
Cc1c2ccccc2c(C)c2ccccc12 | 1-3% | –
Nc1ccc2ccccc2c1 | – | result in the degranulation test (evaluation screen): positive
c1ccc2ccccc2c1 | 0-8% | –
c1ccc2[nH]ccc2c1 | 0 -8% | –
Nc1ccccc1 | 2 -5% | –
CCOC(N)=O | 3 - 8% | –
O=[N+]([O-])c1ccccc1 | 4-5% | –
c1cc2cccc3c4cccc5cccc(c(c1)c23)c54 | 0-0% | –

Compound | Degranulation (%) [1] | further results
O=C1c2ccccc2C(=O)c2ccccc21 | 4.7% | –
CN(C)P(=O)(N(C)C)N(C)C | 2-8% | –
ClC1=C(Cl)[C@]2(Cl)[C@@H]3[C@@H]4C[C@@H]([C@H]5O[C@@H]45)[C@@H]3[C@@]1(Cl)C2(Cl)Cl | 4.3% | –
c1ccc2nc3ccccc3cc2c1 | 3.5% | –
CC12CCC(CC1=O)C2(C)C (stereo not drawn) | 3 -4% | –
S=C1NCCN1 | 7-8% | –
Oc1cccc2ccccc12 | 1 -3% | –
3,4,9,10-Dibenzpyrene | 9.5% | –
CO[C@@]12[C@H](COC(N)=O)C3=C(C(=O)C(C)=C(N)C3=O)N1C[C@@H]1N[C@@H]12 | – | Degranulation (%) (incubate 12 ug/ml, + generating system): 0-4%; result in the degranulation test (in the absence of NADPH): positive; result in the degranulation test (in the presence of NADPH): negative
Dimethylformamide | 0-3% | –
COc1cc2c(c(OC)c1OC)-c1ccc(OC)c(=O)cc1[C@@H](NC(C)=O)CC2 | – | Degranulation (%) [2]: 4.4%
Oc1cccc(O)c1 | 0-4% | –
Nc1ccccc1C(=O)O | > 37% | –
O=NN(c1ccccc1)c1ccccc1 | 1 -8% | –
Cc1cc2nc3c(=O)[nH]c(=O)nc-3n(C[C@H](O)[C@H](O)[C@H](O)CO)c2cc1C | > 5.6% | –
COP(=O)(OC)OC | > 5.8% | –
D.D.T. | 1 -5% | –
